PubChem BioAssay AID463141 (The Scripps Research Institute Molecular Screening Center, 2010)
The list shows a part of the results, in another mix than the full data. Some results for these compounds are left out of this collection, so the calls shown say nothing about other tests. Activity calls are given as the source filed them.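 The calls were made as follows: active = activation above the mean of all tested compounds plus 3 SD (cut at about 21% in these data); inactive = the rest.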

The chains behind the UniProt entries cited, without tags or fusion partners.
UniProt P42574, whole entry D9A/D28A/D175A: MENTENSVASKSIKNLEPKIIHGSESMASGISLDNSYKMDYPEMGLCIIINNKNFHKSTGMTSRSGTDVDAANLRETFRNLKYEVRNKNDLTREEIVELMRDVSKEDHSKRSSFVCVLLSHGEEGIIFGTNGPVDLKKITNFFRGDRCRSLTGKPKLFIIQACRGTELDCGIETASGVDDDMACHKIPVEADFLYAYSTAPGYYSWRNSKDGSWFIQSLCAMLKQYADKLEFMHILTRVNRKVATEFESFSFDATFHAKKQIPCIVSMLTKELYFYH

target: Caspase-3 (Homo sapiens) (UniProt P42574); assay: activators of human procaspase-3 D3A mutant, primary screen, biochemical, absorbance, PC-3 D3A mutant, single concentration (AID 463141); settings: recombinant procaspase-3 D3A, Ac-DEVD-pNA absorbance 405 nm; at 8.5 µM; stronger effect = higher value;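 also: 0% = DMSO alone and 100% = DMSO wells spiked with extra 5 µM PC-3 D3A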

| Compound | activation |
| --- | --- |
| C=CCN1CCN(CCOC(=O)C(O)(c2ccccc2)c2ccccc2)CC1 | inactive: -0.16% |
| O=C(NCC1(N2CCCCC2)CCCCC1)c1cc(F)c(F)cc1Cl | inactive: -3.52% |
| Cc1cc(C(=O)NCC2(N3CCCCC3)CCCCC2)ccc1[N+](=O)[O-] | inactive: 0.63% |
| CCN1CCCC(OC(=O)C2(O)c3ccccc3C=Cc3ccccc32)C1 (centres undefined) | inactive: 7.97% |
| O=C(NCC1(N2CCCCC2)CCCCC1)c1cccc(Br)c1 | inactive: -2.32% |
| COc1ccc(C(=O)NCC2(N(C)C)CCCCC2)cc1 | inactive: 2.1% |
| Cc1ccccc1C(=O)NCC1(N2CCCCC2)CCCCC1 | inactive: 8.84% |
| CN(C)C1CCCC1OC(=O)C(O)(c1ccccc1)c1ccccc1 (centres undefined) | inactive: -0.53% |
| CN(C)c1ccc(C(=O)NCC2(N(C)C)CCCCC2)cc1 | inactive: -3.47% |
| CC(C)N1C(=O)CC2(CCN(CCOC(=O)C(O)(c3ccccc3)c3ccccc3)CC2)C1=O | inactive: -12.9% |
| CCN(CC)CC(C)C(C)OC(=O)C(O)(c1ccccc1)c1ccccc1 (centres undefined) | inactive: 1.99% |
| COc1cc(SC)ccc1C(=O)NCC1(N(C)C)CCCCC1 | inactive: 2.32% |
| Cc1ccc(C(=O)NCC2(N3CCCCC3)CCCCC2)cc1 | inactive: 0.03% |
| O=C(NCC1(N2CCCCC2)CCCCC1)c1cc([N+](=O)[O-])ccc1Cl | inactive: 7.37% |
| CN1[C@@H]2CC[C@H]1CC(OC(=O)C(O)(c1ccccc1)c1ccccc1)C2 (some centres undefined) | inactive: -6.07% |
| COc1ccc(Br)c(C(=O)NCC2(N3CCCCC3)CCCCC2)c1 | inactive: 3.73% |
| CN(C)c1cccc(C(=O)NCC2(N(C)C)CCCCC2)c1 | inactive: 4.41% |
| CC(C)Oc1ccc(C(=O)NCC2(N(C)C)CCCCC2)cc1 | inactive: 3.94% |
| O=C(OC1CN2CCC1CC2)C(CO)(c1ccccc1)c1ccccc1 (centres undefined) | inactive: 4.21% |
| COc1cccc(C(=O)NCC2(N3CCCCC3)CCCCC2)c1 | inactive: -1.12% |
| COc1ccc(Cl)cc1C(=O)NCC1(N(C)C)CCCCC1 | inactive: -1.12% |
| O=C(NCC1(N2CCCCC2)CCCCC1)c1cccc(Cl)c1 | inactive: 5.42% |
| CN(C)C1(CNC(=O)c2ccc(Br)cc2)CCCCC1 | inactive: 5.8% |
| COc1cc(C(=O)NCC2(N(C)C)CCCCC2)c([N+](=O)[O-])cc1OC | inactive: -6.07% |
